Test: T1 of hyperpolarized ^15N sites bound to labile protons upon dissolution in H2O and D2O, 5.8 T
Format: physicochemical

Substance: [^15N]ammonium chloride
- T1 upon dissolution in D2O (D2O, ≈37° C. (35-40° C.), 5.8 T, n=2): 150 ± 20 s
- T1 upon dissolution in H2O (H2O, ≈37° C. (35-40° C.), 5.8 T, n=2): 46 ± 4 s
- T1 prolongation D2O versus H2O (deuteration of labile protons): 3.3 fold
